US7981882B2 (dated 2011)

Protein sequences, listed by entry. Tags and fused reporters are not part of them.
UniProt P28223, whole entry: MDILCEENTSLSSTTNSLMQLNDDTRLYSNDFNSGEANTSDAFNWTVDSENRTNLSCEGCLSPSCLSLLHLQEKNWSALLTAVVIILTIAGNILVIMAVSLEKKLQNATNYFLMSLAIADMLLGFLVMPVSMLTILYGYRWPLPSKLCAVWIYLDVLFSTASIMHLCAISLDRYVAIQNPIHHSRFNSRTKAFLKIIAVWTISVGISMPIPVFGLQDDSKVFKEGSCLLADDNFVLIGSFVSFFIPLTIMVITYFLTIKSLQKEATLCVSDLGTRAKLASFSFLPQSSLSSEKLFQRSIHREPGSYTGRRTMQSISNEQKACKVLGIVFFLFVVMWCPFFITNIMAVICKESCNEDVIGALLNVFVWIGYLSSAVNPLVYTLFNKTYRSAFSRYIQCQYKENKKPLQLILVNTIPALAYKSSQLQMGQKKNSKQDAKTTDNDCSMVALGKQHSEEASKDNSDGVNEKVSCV
UniProt P41595, whole entry: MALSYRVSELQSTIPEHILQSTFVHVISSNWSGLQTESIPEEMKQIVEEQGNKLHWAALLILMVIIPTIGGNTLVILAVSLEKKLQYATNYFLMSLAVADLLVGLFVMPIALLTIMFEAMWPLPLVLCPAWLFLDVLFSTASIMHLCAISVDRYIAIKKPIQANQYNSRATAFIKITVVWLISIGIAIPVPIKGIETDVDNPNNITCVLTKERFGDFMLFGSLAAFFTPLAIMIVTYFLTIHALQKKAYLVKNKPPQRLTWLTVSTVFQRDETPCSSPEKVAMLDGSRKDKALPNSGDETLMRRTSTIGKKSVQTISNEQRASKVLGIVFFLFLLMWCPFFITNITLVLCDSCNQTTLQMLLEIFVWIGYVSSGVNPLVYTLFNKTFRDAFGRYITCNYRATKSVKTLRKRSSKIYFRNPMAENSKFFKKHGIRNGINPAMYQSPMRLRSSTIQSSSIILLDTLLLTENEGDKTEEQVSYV

Key:
human 5-HT2A receptor = human 5-HT2A receptor (Homo sapiens, UniProt P28223); conditions: normalized AUC at 5-HT2C / normalized AUC at 5-HT2A, relative to 5-HT
human 5-HT2B receptor = human 5-HT2B receptor (Homo sapiens, UniProt P41595); conditions: normalized AUC at 5-HT2C / normalized AUC at 5-HT2B, relative to 5-HT

Clc1cccc(N2CCNCC2)c1 [mCPP, meta-chlorophenylpiperazine]
Selectivity Ratio AUC 2C/2A (human 5-HT2A receptor): 2.1
Selectivity Ratio AUC 2C/2B (human 5-HT2B receptor): 2.1
